Test results taken from BindingDB's records for doi:10.1021/bi00180a024 (Medical University of South Carolina, 1994).

Chains of the proteins cited; added tags and fusions are not shown.
UniProt P08908, whole entry: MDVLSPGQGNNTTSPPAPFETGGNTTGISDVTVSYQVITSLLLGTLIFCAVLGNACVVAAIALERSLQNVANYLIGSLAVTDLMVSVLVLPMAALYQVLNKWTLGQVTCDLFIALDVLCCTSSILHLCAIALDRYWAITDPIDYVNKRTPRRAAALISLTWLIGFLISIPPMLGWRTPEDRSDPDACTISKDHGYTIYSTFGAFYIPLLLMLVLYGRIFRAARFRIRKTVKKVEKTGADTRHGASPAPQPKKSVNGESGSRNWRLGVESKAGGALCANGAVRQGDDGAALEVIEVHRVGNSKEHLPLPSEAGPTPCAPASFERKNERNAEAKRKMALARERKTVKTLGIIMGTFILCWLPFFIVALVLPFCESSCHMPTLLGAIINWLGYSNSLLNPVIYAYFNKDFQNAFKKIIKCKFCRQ

Biological target: 5-hydroxytryptamine receptor 1A (Homo sapiens, UniProt P08908)

Work on `COC(=O)[C@@H]1[C@H]2C[C@H]3c4[nH]c5ccccc5c4CCN3C[C@@H]2CC[C@@H]1O` [yohimbic acid methyl ester] yielded a Ki of 1500 nM.
